{"source": "patent US4212797A", "about": "“Synthetic pentapeptide having opiate agonist activity” (Beckman Instruments, Inc., priority 1976, dated 1980)", "system": "opiate receptor (stereospecific naloxone binding)", "experiment": "Inhibition of stereospecific naloxone binding (Pert and Snyder technique)", "details": "sodium 100 mM", "protocol": "B., and Snyder, S., Proceedings of the National Academy of Sciences, Vol. 70, pp. 2243-2247 (1973). The potency is measured as ID50, defined as the concentration required to inhibit 50% of stereospecific naloxone binding. The concentration of sodium was 100 mM. The effectiveness is inversely related to the ID50 value.", "data": [{"smiles": "CN1CC[C@]23c4c5ccc(O)c4O[C@H]2[C@@H](O)C=C[C@H]3[C@H]1C5", "note": "[Morphine]", "values": [{"measurement": "ID50, concentration required to inhibit 50% of stereospecific naloxone binding", "result": 0.2}]}]}
